Values of other authors as cited in article PMC7509035, “[^68Ga]ABY-028: an albumin-binding domain (ABD) protein-based imaging tracer for positron emission tomography (PET) studies of altered vascular permeability and predictions of albumin-drug conjugate transport” (EJNMMI Research, 2020).

Tests used:
[1] = due to binding to FcRn; ref [14]; cited from earlier work
Source text: (§1) Albumin, the most abundant plasma protein, has been frequently used as a carrier platform to deposit drugs and diagnostic imaging agents in tissues with altered vascular permeability. Albumin’s circulatory half-life is quite long, approximately 20 days, due to its binding to the neonatal Fc receptor (FcRn). Albumin is transported through the normal endothelium by transcellular pathways at a rate of approximately 5% per hour, but the transport pathways change and the rates of and total albumin uptake often increase when endothelial barriers are disrupte ...

normal endothelium = conditions: transcellular pathways; ref [16]; cited from earlier work
Source text: as §1

Substance: Albumin: most abundant plasma protein
- circulatory half-life [1]: approximately 20 days
- transport rate through normal endothelium (normal endothelium): approximately 5 % per hour
